These results are taken from ChEMBL document CHEMBL3632588 (Medchemcomm, 2015).

A short description of the series: Cytotoxicity in mouse NMuMG cells assessed as cell growth at 20 uM after 72 hrs by colorimetry. Format: cell-based.
As for `COC(=O)[C@@H]1N2C(=O)[C@H](Br)[C@H]2S[C@@]1(C)CCl`, the Activity turned out to be 95%.
Take `COC(=O)[C@@H]1N2C(=O)C(Br)(Br)[C@H]2S[C@@]1(C)CSc1nc2ccccc2o1`: the Activity came out at 40%.
Regarding `C[C@@]1(CCl)S[C@H]2N(C(=O)C2(Br)Br)[C@H]1C(=O)OCc1ccccc1`, the Activity is 41%.
Regarding `COC(=O)[C@@H]1N2C(=O)[C@H](Cl)[C@H]2S[C@@]1(C)CCl`, the Activity came to 78%.
For `COC(=O)[C@@H]1N2C(=O)C(Br)(Br)[C@H]2S[C@@]1(C)CSc1nnn[nH]1`, the Activity is 82%.
On to `COC(=O)[C@@H]1N2C(=O)C(Br)(Br)[C@H]2S[C@@]1(C)CSc1nnnn1-c1ccccc1`, for which the Activity amounted to 10%.
`COC(=O)[C@@H]1N2C(=O)C(Br)(Br)[C@H]2S[C@@]1(C)CSc1nc2ccccc2s1`: the Activity amounted to 49%.
